Measurements taken from patent EP4556465A1, “NOVEL BICYCLIC PD-L1 INHIBITORS, PREPARATION METHODS THEREFOR AND MEDICINAL USES THEREOF” (priority 2022, dated 2024).

Test system: breast cancer tumor cells 4T1
Settings: 10 mg/kg, i.g., QD×21 days
Protocol: Subsequently, each group of animals was dosed, and the day of first administration was defined as test day 1; • Administration frequency: once a day; • General state observations: observation time and frequency: once a day; observation indicators or content: including, but not limited to, local administration of the animals, appearance signs, general behavioral activity, mental status, death, and other abnormal manifestations. The animals were euthanized at the end of the test. • Calculation of tumor volume: V=1/2×long diameter×short diameter^2 (mm^3).

Question: For O=C(O)CN1CCc2nc(OCc3cccc(-c4ccccc4F)c3Cl)ccc2C1 [I-D-26, 2-(2-((2-chloro-2'-fluoro-[1,1'-biphenyl]-3-yl)methoxy)-7,8-dihydro-1,6-naphthyridin-6(5H)-yl)acetic acid], which “general state of tumor-bearing animals during administration (water and food intake, activity, body weight, toxicity)” value is on record?
Answer: The value was “normal water intake and food intake, normal activity, normal body weight, and no toxicity manifestations”.
